By UniProt entry, the sequences of proteins in these tests, tags left out. Residues count along the entry.
UniProt P22894, 100-262 limits assumed: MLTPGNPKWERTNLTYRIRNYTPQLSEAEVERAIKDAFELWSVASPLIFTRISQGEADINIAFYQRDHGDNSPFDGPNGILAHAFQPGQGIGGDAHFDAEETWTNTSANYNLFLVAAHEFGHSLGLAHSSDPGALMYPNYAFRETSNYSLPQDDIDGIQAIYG

In patent publication US6498252B1, “Pyrimidine-2,4,6-trione derivatives, processes for their production and pharmaceutical agents containing these compounds” (priority 1999, dated 2002):

Target: MMP-8, catalytic domain (Homo sapiens, UniProt P22894)
Assay: Inhibition of MMP-8 (HNC) catalytic domain, fluorogenic substrate cleavage
Assay type: biochemical
Settings: read-out: IC50 Values of MMP-Inhibitor (vs. MMP-8, catalytic domain); catalytic domain of human neutrophil collagenase (MMP-8); substrate DNP-Pro-Leu-Gly-Leu-Trp-Ala-D-Arg-NH2; 25° C.
Method: In order to determine the inhibition of MMPs, for example HNC (MMP-8), the catalytic domain (isolation and purification see for example Schnierer, S., Kleine, T., Gote, T., Hillemann, A., Knäuper, V., Tschesche, H.,Biochem. Biophys. Res. Commun. (1993) 191, 319-326) were incubated with inhibitors having various concentrations. Subsequently, the initial reaction rate in the conversion of a standard substrate was measured in a manner analogous to Grams F. et al., FEBS 335 (1993) 76-80).
The results awee evaluated by plotting the reciprocal reaction rate against the concentration of the inhibitor. […]
The synthetic collagenase substrate was a heptapeptide which is coupled, at the C terminus, with DNP (dinitrophenol). Said DNP residue quenched by steric hindrance the fluorescence of the adjacent tryptophane of the heptapeptide. After cleavage of a tripeptide which includes the DNP group, the tryptophane fluorescence increased. The proteolytic cleavage of the substrate therefore was measured by the fluorescence value.
The assay was performed at 25° C. in a freshly prepared 50 mM Tris buffer (pH 8.0) treated with dithiozone to remove traces of heavy metals. […] Enzyme concentrations were determined by uv measurements (ε280=2.8 10^4 M^−1 cm^−1, ε288: 2.2 10^4 M^−. cm^−1) and the stock solutions were stored in the cold. […]

Question: `CCCCCCCCC1(N2CCN(c3ccc([N+](=O)[O-])cc3)CC2)C(=O)NC(=O)NC1=O` was tested. Which IC50 did it give?
Answer: 60 nM
